Source: patent US11179437B2, “COP9 signalosome (CSN) complex modulators and uses thereof” (Yeda Research and Development Co. Ltd., priority 2017, dated 2021)

Key:
Format in all cases: cell-based, human
HAP1 cells [1] = assay: Resazurin proliferation assay after UV-C induced DNA damage; details: exogenous expression in ΔCSNAP cells, 20 J/m^2 UV-C (FIG. 2A)
Method: WT, ΔCSNAP, ΔCSNAP-Cerulean and ΔCSNAP-ΔC-Cerulean expressing cells were trypsinized, counted, and 5000 cells/well in 12 well plate were seeded in 4 replicates. Cells in one plate were seeded directly to 30 μg/mlresazurin containing growth medium and fluourescence intensity was measured (540/600 nm) after 2 hours, for initial proliferation value. The other plates were either UV-exposed at 20 J/m^2 24 hours after seeding or left untreated. Two or 4 hours post-UV the growth medium was changed to 30 μg/ml resazurin containing medium and incubated for 2 hours, and fluorescence was measured. Proliferation was calculated at each time point normalizing to the initial proliferation value.

HAP1 cells [2] = assay: Cell cycle analysis by flow cytometry (double thymidine block or asynchronous BrdU/propidium iodide); details: asynchronous ΔCSNAP cells, exogenous expression (FIG. 1D)
Method: Cells were synchronized to G1/S phase using double thymidine block as described in (Füzesi-Levi et al., 2014). UV treated cells were exposed to 5 J/m^2 dose at release, and fixed with ethanol at different time points. Cell cycle phases were assessed by flow cytometry (LSRII, BD Biosciences) following propidium iodide staining. Asynchronous cells were analyzed using propidium iodide and BrdU double staining. 10^5 cells were denatured after fixation using 2N HCl, 0.5% Triton X-100 in PBS for 30 minutes, neutralized in 0.1M Na2B4O7 pH8.5 and incubated with 5 μl of anti-BrdU-FITC (eBioscience 11-5071-41) 1% BSA, 0.5% Triton X-100 in PBS for 1 hour. Cells were washed in 1% BSA in PBS and resuspended in PBS containing 50 μg/ml propidium iodide and 50 μg/ml RNAse A, and analyzed in FACSAria Fusion flow cytometer (BD Biosciences).

ΔCSNAP HAP1 cells = assay: Confocal microscopy of cell morphology (cell and nuclear area); details: exogenous expression in ΔCSNAP cells (FIGS. 1A, 1B)
Method: Confocal imaging of WT, ΔCSNAP and ΔCSNAP cells expressing CSNAP-Cerulean was performed at 60× magnification as previously described (Rozen et al., 2015). Cell area was measured by Olympus Fluoview software. The area of at least 27 cells and nuclei were measured, and plotted as boxes extending from the third (Q3) to the first quartiles (Q1). Whiskers at the top and bottom represent measurements above the Q3 or below the Q1, respectively.

CSNAP-cerulean: full length CSNAP protein tagged with cerulean, exogenously expressed in ΔCSNAP cells (MKPAVDEMFPEGAGPYVDLDEAGGSTGLLMDLAANEKAVHADFFNDFEDLFDDDDIQ; left off: large carriers)
reduced cellular proliferation (arrest) after UV-C irradiation (HAP1 cells [1]): rescue was achieved | prevention of larger S and G2 phase population of ΔCSNAP cells (HAP1 cells [2]): can be prevented | rescue of enlarged and flattened cell morphology of ΔCSNAP cells (ΔCSNAP HAP1 cells): can be rescued
